The chains behind the UniProt entries cited, without tags or fusion partners. Where a name states a change or a piece, a line headed by the entry shows the natural chain unless it says otherwise.
UniProt P41595, whole entry: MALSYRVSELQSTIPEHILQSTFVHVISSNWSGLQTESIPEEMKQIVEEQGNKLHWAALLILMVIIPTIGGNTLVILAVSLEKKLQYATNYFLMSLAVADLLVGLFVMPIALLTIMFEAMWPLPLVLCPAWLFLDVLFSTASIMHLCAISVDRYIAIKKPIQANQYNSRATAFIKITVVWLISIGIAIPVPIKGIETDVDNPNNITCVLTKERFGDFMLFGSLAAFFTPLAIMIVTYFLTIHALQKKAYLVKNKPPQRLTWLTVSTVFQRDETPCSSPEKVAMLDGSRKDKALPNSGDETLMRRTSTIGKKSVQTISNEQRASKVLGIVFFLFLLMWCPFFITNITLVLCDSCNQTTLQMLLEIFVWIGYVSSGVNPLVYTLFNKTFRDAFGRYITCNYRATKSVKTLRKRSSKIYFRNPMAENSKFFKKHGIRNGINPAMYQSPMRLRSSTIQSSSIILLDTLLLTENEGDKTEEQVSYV
UniProt P28335: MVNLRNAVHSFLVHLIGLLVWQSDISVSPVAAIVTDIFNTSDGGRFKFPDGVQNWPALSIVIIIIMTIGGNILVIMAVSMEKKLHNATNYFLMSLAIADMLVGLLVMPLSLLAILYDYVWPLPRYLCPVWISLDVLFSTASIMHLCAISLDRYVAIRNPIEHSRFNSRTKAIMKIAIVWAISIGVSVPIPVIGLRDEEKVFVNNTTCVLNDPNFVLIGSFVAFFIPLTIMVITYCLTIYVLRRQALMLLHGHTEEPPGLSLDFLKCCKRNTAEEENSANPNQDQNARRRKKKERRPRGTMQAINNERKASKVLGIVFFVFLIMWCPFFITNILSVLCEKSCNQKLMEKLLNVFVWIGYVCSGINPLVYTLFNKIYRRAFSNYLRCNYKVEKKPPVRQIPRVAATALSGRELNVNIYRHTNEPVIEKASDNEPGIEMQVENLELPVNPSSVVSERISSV
UniProt P28223, whole entry: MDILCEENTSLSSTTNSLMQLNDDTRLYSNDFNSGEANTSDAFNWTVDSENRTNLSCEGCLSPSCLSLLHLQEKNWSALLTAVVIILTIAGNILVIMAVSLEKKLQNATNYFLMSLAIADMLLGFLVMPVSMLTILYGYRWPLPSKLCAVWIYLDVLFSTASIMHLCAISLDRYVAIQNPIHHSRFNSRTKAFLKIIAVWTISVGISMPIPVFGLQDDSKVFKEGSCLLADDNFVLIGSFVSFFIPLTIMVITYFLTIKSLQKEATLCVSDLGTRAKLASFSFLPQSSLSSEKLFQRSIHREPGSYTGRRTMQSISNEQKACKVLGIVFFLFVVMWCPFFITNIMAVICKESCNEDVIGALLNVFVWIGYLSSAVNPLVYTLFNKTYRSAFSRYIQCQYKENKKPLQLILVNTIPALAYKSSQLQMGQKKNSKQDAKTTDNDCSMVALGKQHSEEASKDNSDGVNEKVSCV

In ChEMBL document CHEMBL4011649 (J Med Chem, 2017):

Tests used:
[1] = molecular target: 5-hydroxytryptamine receptor 2B (Homo sapiens, UniProt P41595); experiment: Agonist activity at human 5-HT2B receptor expressed in Flp-IN HEK293 cells assessed as induction of calcium flux measured every second for 5 mins by Fluo-4 dye based FLIPR assay; type: cell-based
[2] = molecular target: T1, 5-hydroxytryptamine receptor 2C (Homo sapiens, UniProt P28335); experiment: Agonist activity at tTA containing TEV cleavage site-fused 5-HT2C-INI receptor isoform (unknown origin) expressed in TEV-fused beta-arrestin2 expressing HEK cells assessed as induction of beta-arrestin2 recruitment after 20 hrs by Tango assay; type: cell-based
[3] = molecular target: T1, 5-hydroxytryptamine receptor 2C; experiment: Agonist activity at human 5-HT2C-INI receptor isoform expressed in Flp-IN HEK293 cells assessed as induction of Gq-mediated calcium flux measured every second for 5 mins by Fluo-4 dye based FLIPR assay; type: functional, cell-based
[4] = molecular target: T1, 5-hydroxytryptamine receptor 2C; experiment: Ratio of Emax to EC50 for human 5-HT2C-INI receptor isoform expressed in Flp-IN HEK293 cells; type: cell-based
[5] = molecular target: T1, 5-hydroxytryptamine receptor 2C; experiment: Ratio of Emax to EC50 for tTA containing TEV cleavage site-fused 5-HT2C-INI receptor isoform (unknown origin) expressed in TEV-fused beta-arrestin2 expressing HEK cells assessed as induction of beta-arrestin2 recruitment activity; type: cell-based
[6] = molecular target: 5-hydroxytryptamine receptor 2A (Homo sapiens, UniProt P28223); experiment: Agonist activity at human 5-HT2A receptor expressed in Flp-IN HEK293 cells assessed as induction of calcium flux measured every second for 5 mins by Fluo-4 dye based FLIPR assay; type: cell-based

COc1ccccc1CNC[C@H]1C[C@@H]1c1cc(F)ccc1OCCF
EC50 [1]: 0.024 µM | EC50 [2]: 0.011 µM | EC50 ([3]; read-out: EC50): 0.0024 µM | EC50 ([3]; read-out: pEC50 (converted)): 0.00224 to 0.0024 µM | log(ratio) [4]: 8.59 | log(ratio) [5]: 7.69 | EC50 [6]: 0.024 µM
